These results are taken from patent US20250197476A1.

The experiment deals with Fc gamma receptors of NK cells. Nature of the experiment: cytofluorometry, NK cells, 10 µg/ml, 30 min at 37 °C.

“FcWT-N3-DBCO-A647 (from UniProt P01857 104-330)” returned an MFI of 1110.
